# scFv variants of Ab-95 (light chain) against a SARS-CoV-2 spike peptide

Values reported by Engelhart et al. 2022, doi:10.1038/s41597-022-01779-4 (FLAb copy).

Target: peptide PDVDLGDISGINAS, taken from heptad repeat 2 (HR2) of SARS-CoV-2 spike.

The variants keep the heavy chain, the linker and the frameworks of Ab-95 (scFv order VH, a 15-residue (Gly4Ser)3 linker, VL).
VH: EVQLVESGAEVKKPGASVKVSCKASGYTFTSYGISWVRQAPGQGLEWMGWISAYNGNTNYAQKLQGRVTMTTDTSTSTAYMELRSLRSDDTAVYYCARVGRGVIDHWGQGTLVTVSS
VL: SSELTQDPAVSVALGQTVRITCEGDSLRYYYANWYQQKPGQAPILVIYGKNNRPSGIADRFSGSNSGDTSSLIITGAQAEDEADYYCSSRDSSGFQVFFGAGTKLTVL

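The starting antibody came from a phage panning campaign against this peptide. In library AAYL52, one, two or three CDR residues were substituted; doubles and triples were drawn at random. The assay is AlphaSeq: two haploid yeast populations carry antibody and antigen on their surface. After mating in shaken culture at 30 °C for 16 h, diploids were selected and their barcode pairs sequenced. Scores were corrected for input abundance and mapped to Kd with protein pairs of known affinity run in the same pool. Each pool was mated in three replicate cultures.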

The parent's light chain CDRs are EGDSLRYYYAN, GKNNRPS, SSRDSSGFQVF; each variant's own CDRs replace them letter for letter. All variants listed here change S92 of the VL, counted from its first residue. The Kd shown is the geometric mean over detected replicates; a lower Kd is a better binder. "no signal" means that the variant was in the library but no mating with the target was seen in any replicate; the authors take this as a sign of poor binding, and no number exists. The list is sorted by this average, lowest first, undetected variants last. In this assay the parent's reference entry averaged 200 nM; its copy inside this library read 180 nM. Empty control strains, which show no peptide, gave a signal in 28% of pairings with library AAYL52; the median was 8.2 µM and 95% of these signals were weaker than 800 nM. No background was subtracted. Also given: how often the same scFv was detected with the empty control strains.

The variant EGDSLRYYEAN, GKNNRPS, MSRDKSGFQVF showed 3.5 nM (3 of 3 replicates; controls 3 of 9).
The variant EGDSLRYDYAN, GKNNRPS, SSKDFSGFQVF showed 45 nM (3 of 3 replicates; controls 1 of 9).
The variant EGDSLRYYYAN, GKNNRPS, SSRDFLKFQVF showed 71 nM (3 of 3 replicates; controls 1 of 9).
The variant EMDSLRYYYAN, GHNNRPS, SSRDDSGFQVF showed 120 nM (3 of 3 replicates; controls 2 of 9).
The variant EGDSLRYYYAN, GKNNRPS, SSRDPSGDQVF showed 200 nM (3 of 3 replicates; controls 4 of 9).
The variant EGDSLRYYYAN, GKNNRPS, SSRDTSIFNVF showed 220 nM (3 of 3 replicates; controls 1 of 9).
The variant EGDSLRYYYAN, GKNNRPS, PSRDCSGFAVF showed 240 nM (3 of 3 replicates; controls 0 of 9).
The variant ENDSLRQYYAN, GKNNRPS, SSRDHSGFQVF showed 350 nM (3 of 3 replicates; controls 4 of 9).
The variant EGDQLRYYYAN, GKNNRPS, NSRDFSGFQVF showed 510 nM (1 of 3 replicates; controls 0 of 9).
The variant EGDLLRYYYAN, GKNNRPQ, SSRDKSGFQVF showed 590 nM (3 of 3 replicates; controls 2 of 9).
The variant EGYSLRYYYAN, GKNNRPS, SSRDGSRFQVF showed 640 nM (3 of 3 replicates; controls 4 of 9).
The variant EGDSLRYYYAN, GKNNRPS, SSRDISGFQVF showed 790 nM (3 of 3 replicates; controls 2 of 9).
The variant EGDSLRYLYAN, GKNNRPS, SSRDTEGFQVF showed 850 nM (3 of 3 replicates; controls 4 of 9).
The variant GGDSLRYYYAN, GKNNRPS, SSRFQSGFQVF showed 980 nM (3 of 3 replicates; controls 5 of 9).
The variant EGASLRYYYAN, GKNNRPS, TSRDKSGFQVF showed 1.4 µM (3 of 3 replicates; controls 2 of 9).
The variant EGDSYRYYYAN, GKNNRPS, SSRDTSGFQVF showed 1.8 µM (2 of 3 replicates; controls 1 of 9).
The variant EGDSLLYYYAH, GKNNRPS, SSRDYSGFQVF showed 2.1 µM (3 of 3 replicates; controls 2 of 9).
The variant EGDRLRYYYAN, GKNNRPS, SSRDPSGFQVW showed 3.5 µM (2 of 3 replicates; controls 4 of 9).
The variant ESDSLRYYYAN, GKNNRPS, SSRDCSGFQNF showed 4.4 µM (3 of 3 replicates; controls 4 of 9).
The variant EGDCLRYYMAN, GKNNRPS, SSRDRSGFQVF showed 4.8 µM (2 of 3 replicates; controls 1 of 9).
The variant ETDSLRYYYAN, GKNNRPS, CSRDWSGFQVF showed 4.9 µM (3 of 3 replicates; controls 2 of 9).
The variant EGDSLRYYYAG, GKNNRPS, SSRDASGFKVF showed 6.2 µM (3 of 3 replicates; controls 4 of 9).
The variant EGDSLRYYYAN, GKNNRRS, SSRDGSGFQVF showed 6.9 µM (2 of 3 replicates; controls 3 of 9).
The variant EGDSLRYYYAN, GKINRPA, SSRDMSGFQVF showed 10 µM (3 of 3 replicates; controls 5 of 9).
The variant EGDSLRYYYAN, GKNNTDS, SSRDYSGFQVF showed 10 µM (2 of 3 replicates; controls 3 of 9).
The variant EGDSIRYYYAN, GKNNRPS, SSRDNSGFKVF showed 14 µM (3 of 3 replicates; controls 2 of 9).
The variant EGDSLRYYYAN, GKINRDS, SSRDHSGFQVF showed 14 µM (2 of 3 replicates; controls 2 of 9).
The variant EGDSLRYYYAT, GKNNRPS, SCRDTSGFQVF showed 16 µM (1 of 3 replicates; controls 0 of 9).
The variant EGDSLRYYYAN, GLANRPS, SSRDHSGFQVF showed 21 µM (2 of 3 replicates; controls 2 of 9).
The variant EGDSERYYYAN, GKNNRPS, SSRDPSGFQVF showed 62 µM (1 of 3 replicates; controls 2 of 9).
The variant EGDSLRYYYAN, FKNNRPS, SSRDYSGFQVM showed no signal (0 of 3 replicates; controls 0 of 9).
The variant EGDSLRYYYAN, WKNNRPS, ISRDASGFQVF showed no signal (0 of 3 replicates; controls 0 of 9).
The variant EGDSLRYYYAN, EKNNRPS, SSRDDSGLQVF showed no signal (0 of 3 replicates; controls 1 of 9).

The first 3 variants above that were never detected:

With EGDSLRYYYAN, FKNNRPS, SSRDYSGFQVM the result was no signal (0 of 3 replicates; controls 0 of 9).
With EGDSLRYYYAN, WKNNRPS, ISRDASGFQVF the result was no signal (0 of 3 replicates; controls 0 of 9).
With EGDSLRYYYAN, EKNNRPS, SSRDDSGLQVF the result was no signal (0 of 3 replicates; controls 1 of 9).